Test results published in PubChem BioAssay AID588795 (National Center for Advancing Translational Sciences (NCATS), 2011).
The list shows a part of the results, in another mix than the full data. Active and inactive are the calls of the source. The call rests on the fitted dose curve; in most records, active means well fitted inhibition curve with a large enough effect; inconclusive means small, poorly fitted or top-dose-only effect; inactive means no such curve, though single readings can be large or run the other way.

By UniProt entry, the sequences of proteins in these tests, tags left out.
UniProt P39748, whole entry: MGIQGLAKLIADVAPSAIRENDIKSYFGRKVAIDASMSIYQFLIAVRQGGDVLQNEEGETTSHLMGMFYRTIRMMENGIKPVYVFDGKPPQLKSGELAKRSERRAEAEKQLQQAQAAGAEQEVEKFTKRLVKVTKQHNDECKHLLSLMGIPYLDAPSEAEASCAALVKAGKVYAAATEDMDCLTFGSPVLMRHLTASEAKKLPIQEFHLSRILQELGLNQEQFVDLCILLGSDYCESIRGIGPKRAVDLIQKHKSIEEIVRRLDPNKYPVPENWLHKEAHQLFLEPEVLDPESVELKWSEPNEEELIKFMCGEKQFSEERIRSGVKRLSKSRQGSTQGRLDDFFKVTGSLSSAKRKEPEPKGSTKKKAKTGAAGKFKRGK

molecular target: Flap endonuclease 1 (Homo sapiens) (UniProt P39748); assay: qHTS Assay for the Inhibitors of Human Flap endonuclease 1 (FEN1).; further: nearly all actives have a fitted effect of over 65% in size; details: Recombinant FEN1 flap cleavage, fluorescence, 15 min; at 114 µM (top of the series)
On the % scale 0 is the no-effect control and ±100 the full control effect.

| SMILES | activity change, negative = inhibition |
| --- | --- |
| CCC(=O)N(c1ccccc1)C1(COC)CCN(CCc2cccs2)CC1 | inactive: -4.95% |
| CCC(=O)N(c1ccccc1)C1(COC)CCN(CCn2nnn(CC)c2=O)CC1 | inactive: 12.6% |
